Source: PubChem BioAssay AID422 (Emory University Molecular Libraries Screening Center, 2006)
The entries are a selection whose mix differs from that of the whole data set. The source made the active and inactive calls. Cut-off read from the data, not from the text of the source: active = inhibition above about 30%; inactive = the rest.

Chains of the proteins cited; added tags and fusions are not shown.
UniProt P61981, whole entry: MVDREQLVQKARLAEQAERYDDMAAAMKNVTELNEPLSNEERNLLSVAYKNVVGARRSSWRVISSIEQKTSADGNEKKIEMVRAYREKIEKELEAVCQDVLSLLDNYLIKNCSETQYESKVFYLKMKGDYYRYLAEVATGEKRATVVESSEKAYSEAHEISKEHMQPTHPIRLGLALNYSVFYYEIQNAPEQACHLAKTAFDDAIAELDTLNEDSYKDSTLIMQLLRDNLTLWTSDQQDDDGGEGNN

target: 14-3-3 protein gamma (Homo sapiens) (UniProt P61981); assay: 14-3-3 gamma/Raf peptide interaction modulators – biochemical, fluorescence polarization, primary screen (AID 422); details: FP, 14-3-3gamma / TMR-pS259-Raf peptide binding; at 40 µM; active compounds read high;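 note: 0% = protein plus tracer without compound and 100% = blank with tracer alone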

Compound	inhibition
O=C(OC1CN2CCC1CC2)C1c2ccccc2Oc2ccccc21 (configuration not stated)	inactive: -15.1%
N#CC1(Nc2ccccc2)CCN(Cc2ccccc2)CC1	inactive: -7.39%
O=C1CCN(Cc2ccccc2)CC1	inactive: -16.9%
COc1ccc(NC2CCN(CCc3ccccc3)CC2)c(OC)c1	inactive: 5.55%
O=S1(=O)CC(Cl)C(SC2CS(=O)(=O)CC2Cl)C1 (configuration not stated)	inactive: 8.27%
N#CC1(Nc2ccccc2)CCN(CCc2ccccc2)CC1	inactive: -1.92%
N/C(=N\O)c1c(N)no[n+]1[O-]	inactive: -0.21%
CC1CN(C)C(C)CC1Nc1ccccc1 (configuration not stated)	inactive: -7.64%
c1ccc(CCN2CCC(Nc3ccccc3)CC2)cc1	inactive: -3.99%
Fc1ccccc1NC1CCN(Cc2ccccc2)CC1	inactive: 0.48%
CCC(CO)(C(=O)OC1CN2CCC1CC2)c1ccccc1 (configuration not stated)	inactive: -7.15%
CCOc1ncccc1C(=O)NCC1(N2CCOCC2)CCCCC1	inactive: -2.94%
